Laboratory results reported in patent US7851637B2, “Compounds and methods for inhibiting the interaction of BCL proteins with binding partners” (Infinity Pharmaceuticals, Inc., priority 2004, dated 2010).

Chains of the proteins cited; added tags and fusions are not shown.
UniProt Q07817, whole entry: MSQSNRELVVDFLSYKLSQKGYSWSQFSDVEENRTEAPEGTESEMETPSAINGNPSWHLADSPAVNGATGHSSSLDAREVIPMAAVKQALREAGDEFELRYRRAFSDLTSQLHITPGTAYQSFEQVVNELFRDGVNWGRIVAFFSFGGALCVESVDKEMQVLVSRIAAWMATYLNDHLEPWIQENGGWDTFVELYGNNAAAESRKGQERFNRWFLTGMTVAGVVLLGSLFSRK
UniProt P10415, whole entry: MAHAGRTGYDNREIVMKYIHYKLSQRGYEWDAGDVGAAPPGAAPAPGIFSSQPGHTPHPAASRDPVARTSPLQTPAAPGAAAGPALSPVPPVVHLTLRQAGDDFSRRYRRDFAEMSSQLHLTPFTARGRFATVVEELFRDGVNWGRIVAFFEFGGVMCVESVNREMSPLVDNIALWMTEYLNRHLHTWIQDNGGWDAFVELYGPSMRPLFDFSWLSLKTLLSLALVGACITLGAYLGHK

Legend:
Bcl-xL = Bcl-xL (Homo sapiens, UniProt Q07817); assay: Bcl-xL binding affinity analysis (fluorescence polarization binding assay); set-up: scale not given here
Excerpt: (§1) Bcl-2 and Bcl-xL binding can be determined using a variety of known methods. One such assay is a sensitive and quantitative in vitro binding assay using fluorescence polarization (FP) described by Wang, J. -L.; Zhang, Z -J.; Choksi, S.; Sjam. S.; Lu, Z.; Croce, C. M.; Alnenri, E. S.; Komgold, R.; Huang, Z. Cell permeable Bcl-2 binding peptides: a chemical approach to apoptosis induction in tumor cells. Cancer Res. 2000, 60, 1498-1502).
(§2) Bcl-2 and Bcl-xL binding affinity analysis data is presented below for various compounds of the invention.

[1] = system: Human Pancreatic Cancer Cell Line Panc1; assay: Cell death assay (propidium iodide/Hoechst) in Panc1 cells with or without camptothecin
Procedure: (§3) When RL-cells are exposed to isoxazolidine compounds of the present invention, the inhibitors show a dose-dependent cell-killing in the Alamar blue cytoxicity assay with IC50 values of from about 100 μM to about 1 μM (See Examples). When Panc1 cells are exposed to the isoxazolidine compounds of the present invention in combination with camptothecin, the inhibitors show a synergistic dose-dependent cell killing in the propidium iodide exclusion cell survival assay with IC50 values of from about 100 μM to about 1 μM (See Examples).
• 1) Compounds were serially diluted in DMSO from a 9 mM stock to a final concentration of 0.004 mM in a 96 well plate. • 2) Assay plates were prepared by diluting compounds 310 fold into 150 ul of medium containing 10,000 cells/well, with or without 3 uM Camptothecin, resulting in a final DMSO concentration of 0.3% and a compound concentration range from 29 uM to […] for each compound. • 3) Assay plates were incubated at 37 C, 5% CO2 for 72 hours. • 4) After 72 hours, propidium iodide and Hoechst dye were added to each well according to manufacturer's instruction. • 5) Plates were imaged on a fluorescence microscope at wavelengths Ex560/Em650 (Propidium iodide) and Ex360/Em465 (Hoechst) • 6) MetaMorph imaging software was used to determine % cell death by dividing the number of propidium iodide stained cells (dead cells) by the number of Hoechst stained cells (all cells), multipled by 100, in each field.
Panc1 invitro cellular data is presented below for various compounds of the invention.

Bcl-2 = Bcl-2 (Homo sapiens, UniProt P10415); assay: Bcl-2 binding affinity analysis (fluorescence polarization binding assay); settings: read-out: Bcl-2 binding affinity Ki
Excerpt: as §1, §2

[2] = system: RL Human Follicular Lymphoma Cell Line; assay: Alamar blue cytotoxicity assay in RL cells; settings: read-out: Bcl RL Alamar Blue IC50, 72 h incubation
Procedure: as §3
• 1) Using 96 well plates, compounds were serially diluted in DMSO from 9 mM to 4 uM • 2) Assay plates were prepared by diluting samples 310 fold into 150 ul of medium containing 30,000 cells/well resulting in a final DMSO concentration of 0.3% and a concentration range from 29 uM to 0.013 uM for each compound. • 3) Plates were incubated at 37 C and 5% CO2 for 72 h • 4) After 72 h, Alamar blue reagent was added to each well and plates read according to manufacturer's instructions
In vitro cytotoxicity data for RL cells is presented below for various compounds of the invention.

[3] = read-out: Panc1 + Cpt IC50, with 3 uM Camptothecin, 72 hours, % cell death by propidium iodide/Hoechst
[4] = read-out: Panc1 − Cpt IC50, without camptothecin, 72 hours, % cell death by propidium iodide/Hoechst

Structure (SMILES)	Bcl-XL binding affinity Ki (Bcl-xL)	IC50 [1, 3] [nM]	IC50 [1, 4] [nM]	Ki (Bcl-2) [nM]	IC50 [2] [nM]
C[C@@H]1[C@@H](NC(=O)[C@@H]2[C@H]([C@H](C)O)[C@H](CO)ON2Cc2cccc(CN(Cc3ccccc3Cl)[C@H](CN(C)C)C(C)(C)C)c2)C[C@H]2C[C@@H]1C2(C)C	♯	> 2500	> 2500	< 800	–
C[C@@H]1[C@@H](NC(=O)[C@@H]2C([C@H](C)O)[C@H](CO)ON2Cc2cccc(CN(CCCc3ccccc3)CCN(C)C)c2)C[C@H]2C[C@@H]1C2(C)C (stereo partly shown)	♯	–	–	< 800	–
C[C@@H]1[C@@H](NC(=O)[C@@H]2[C@H]([C@H](C)O)[C@H](CO)ON2Cc2cccc(N(CCCc3ccccc3)CCCN(C)C)c2)C[C@H]2C[C@@H]1C2(C)C	♯	> 2500	> 2500	< 800	2000 to 5000
C[C@@H]1[C@@H](NC(=O)[C@@H]2[C@H]([C@H](C)O)[C@H](CO)ON2Cc2cccc(CN(CCN(C)C)Cc3ccc(N(C)C)cc3)c2)C[C@H]2C[C@@H]1C2(C)C	♯	–	–	< 800	> 5000
C[C@@H]1[C@@H](NC(=O)[C@@H]2C([C@H](C)O)[C@H](CO)ON2Cc2cccc(CN(CCN(C)C)CC(C)(C)C)c2)C[C@H]2C[C@@H]1C2(C)C (stereo partly shown)	♯	–	–	< 800	–
COc1c(CN2OC(CO)C(C(C)O)C2C(=O)NC2CC3CC(C2C)C3(C)C)cccc1-c1cccc(C(=O)NCCN(C)C)c1 (stereo not shown)	♯	–	–	< 800	–
C[C@@H]1[C@@H](NC(=O)[C@@H]2[C@H]([C@H](C)O)[C@H](CO)ON2Cc2cccc(CN(CCN(C)C)CC3CCOCC3)c2)C[C@H]2C[C@@H]1C2(C)C	♯	–	–	< 800	–
C[C@@H]1[C@@H](NC(=O)[C@@H]2[C@H]([C@H](C)O)[C@H](CO)ON2CCCCN(CCN(C)C)CC2CCCCC2)C[C@H]2C[C@@H]1C2(C)C [Compound 553]	♯	–	–	800 to 6000	–
COc1c(CN2OC(CO)C(C(C)O)C2C(=O)NC2CC3CC(C2C)C3(C)C)cccc1-c1cccc(C(=O)NC(CC(C)C)CN(C)C)c1 (single isomer, unassigned) [485]	♯	1300 to 1800	1800 to 2500	< 800	2000 to 5000
CC[C@@H](C)[C@@H](CN(C)C)N(Cc1cccc(CN2O[C@@H](CO)[C@@H]([C@H](C)O)[C@H]2C(=O)N[C@H]2C[C@H]3C[C@@H]([C@@H]2C)C3(C)C)c1)Cc1ccccc1Cl	♯	> 2500	> 2500	< 800	–
C[C@@H]1[C@@H](NC(=O)[C@@H]2C([C@H](C)O)[C@H](CO)ON2Cc2cccc(CN(CCN(C)C)CCC(C)(C)C)c2)C[C@H]2C[C@@H]1C2(C)C (stereo partly shown)	♯	–	–	< 800	–
CCN1CCC[C@H]1CNC(=O)c1cccc(-c2cccc(CN3O[C@@H](CO)[C@H]([C@H](C)O)[C@H]3C(=O)N[C@H]3C[C@H]4C[C@@H]([C@@H]3C)C4(C)C)c2OC)c1	♯	–	–	< 800	–
C[C@@H]1[C@@H](NC(=O)[C@@H]2C([C@H](C)O)[C@H](CO)ON2Cc2cccc(CN(CCN(C)C)CCN(C)C)c2)C[C@H]2C[C@@H]1C2(C)C (stereo partly shown)	♯	–	–	< 800	–
C[C@@H]1[C@@H](NC(=O)[C@@H]2C([C@H](C)O)[C@H](CO)ON2Cc2cccc(CN(CCN(C)C)CC3CCCCC3)c2)C[C@H]2C[C@@H]1C2(C)C (stereo partly shown)	♯	–	–	< 800	–
CC(C)C[C@@H](CN(C)C)NCc1cccc(CN2O[C@@H](CO)C([C@H](C)O)[C@H]2C(=O)N[C@H]2C[C@H]3C[C@@H]([C@@H]2C)C3(C)C)c1 (stereo partly shown) [Compound 552]	♯	–	–	< 800	–
C[C@@H](O)[C@H]1[C@@H](CO)ON(Cc2cccc(C#CCNC(=O)c3ccccc3)c2)[C@H]1C(=O)N[C@@H]1CCN(Cc2ccccc2)C1	♯	–	–	800 to 6000	–
C[C@@H]1[C@@H](NC(=O)[C@@H]2C([C@H](C)O)[C@H](CO)ON2Cc2cccc(CN(CCN(C)C)Cc3ccccc3)c2)C[C@H]2C[C@@H]1C2(C)C (stereo partly shown)	♯	–	–	< 800	–
C[C@@H]1[C@@H](NC(=O)[C@@H]2C([C@H](C)O)[C@H](CO)ON2Cc2cccc(CN(CCN(C)C)C3CCCCC3)c2)C[C@H]2C[C@@H]1C2(C)C (stereo partly shown)	♯	–	–	< 800	–
CCOc1c(CN2O[C@@H](CO)[C@H]([C@H](C)O)[C@H]2C(=O)N[C@H]2C[C@H]3C[C@@H]([C@@H]2C)C3(C)C)cccc1-c1cccc(C(=O)NC[C@@H]2CCCN2CC)c1	♯	> 2500	> 2500	< 800	–
CC(C)C[C@H](CN(C)C)NCc1cccc(CN2O[C@@H](CO)C([C@H](C)O)[C@H]2C(=O)N[C@H]2C[C@H]3C[C@@H]([C@@H]2C)C3(C)C)c1 (stereo partly shown)	♯	–	–	< 800	–
CCN1CCC[C@H]1CNC(=O)c1cccc(-c2cccc(CN3O[C@@H](CO)[C@H]([C@H](C)O)[C@H]3C(=O)N[C@H]3C[C@H]4C[C@@H]([C@@H]3C)C4(C)C)c2OCC2CC2)c1	♯	> 2500	> 2500	< 800	–
C[C@@H]1[C@@H](NC(=O)[C@@H]2[C@H]([C@H](C)O)[C@H](CO)ON2Cc2cccc(CN(CCN(C)C)Cc3cccc(C=O)c3)c2)C[C@H]2C[C@@H]1C2(C)C	♯	–	–	< 800	–
COc1c(CN2OC(CO)C(C(C)O)C2C(=O)NC2CC3CC(C2C)C3(C)C)cccc1-c1cccc(C(=O)NC(CC(C)C)CN(C)C)c1 (single isomer, unassigned) [478]	♯	> 2500	> 2500	< 800	–
C[C@@H]1[C@@H](NC(=O)[C@@H]2C([C@H](C)O)[C@H](CO)ON2Cc2cccc(CNCCN(C)C)c2)C[C@H]2C[C@@H]1C2(C)C (stereo partly shown)	♯	–	–	< 800	–
C[C@@H]1[C@@H](NC(=O)[C@@H]2[C@H]([C@H](C)O)[C@H](CO)ON2Cc2cccc(CN(CCN(C)C)CC3CC4CCC3C4)c2)C[C@H]2C[C@@H]1C2(C)C (stereo partly shown)	♯	–	–	< 800	2000 to 5000
CNC(=S)N1CCN(c2cccc(CN3O[C@@H](CO)[C@@H]([C@H](C)O)[C@H]3C(=O)N[C@H]3C[C@H]4C[C@@H]([C@@H]3C)C4(C)C)c2)CC1	♯	–	–	< 800	–
C[C@@H](O)[C@H]1[C@@H](CO)ON(Cc2cccc(C#CCNC(=O)c3ccccc3)c2)[C@H]1C(=O)NCCCN(C)c1ccccc1	♯♯	–	–	800 to 6000	–
CC(c1cccc(-c2ccc(C(=O)N(C)C)cc2)c1)N1O[C@@H](CO)[C@@H]([C@H](C)O)[C@H]1C(=O)N[C@H]1C[C@H]2C[C@@H]([C@@H]1C)C2(C)C (single isomer, unassigned)	♯	–	–	< 800	–
C[C@@H]1[C@@H](NC(=O)[C@@H]2[C@H]([C@H](C)O)[C@H](CO)ON2Cc2cccc(-c3ccc([S+](C)[O-])cc3)c2)C[C@H]2C[C@@H]1C2(C)C (stereo partly shown)	♯♯	–	–	< 800	–

Where two headings read alike, the source gives them in different places.
